# Laboratory results taken from PMC13572498.
# Protein sequences, listed by entry. Tags and fused reporters are not part of them. Residues count along the entry.
# UniProt Q02223, 1-54: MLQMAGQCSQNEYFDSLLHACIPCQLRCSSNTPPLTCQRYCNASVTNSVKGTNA
# Tests used:
# [1] = target: soluble biotinylated BCMA (recombinant BCMA-biotin) (UniProt Q02223)
# [2] = target: soluble biotinylated BCMA (recombinant BCMA-biotin) (UniProt Q02223); test: SPR; Biacore S200; soluble biotinylated BCMA immobilised on Series S SA sensorchip (3500 RU); biNTe injected, single-cycle kinetics, 4-point series 0.1, 1, 10, 200 nM, 400 s injections, 400 s dissociation; PBS-P+
substance,measurement,setting,value
"bivalent BCMA bispecific iNKT engager (homodimeric, bivalent IgG-scFv; anti-BCMA C11D5.3 IgG fused C-terminally to anti-TCRVβ11 C21 scFv) (bispecific antibody)",EC50 measured against MM1.S cells in the presence of iNKT,[1],0.0024 nM
same,Kd,[2],23.4 nM
